Source: ChEMBL document CHEMBL3085628, “Identification of CB1/CB2 ligands from Zanthoxylum bungeanum” (J Nat Prod, 2013)

Sequences of proteins named here, by UniProt entry; tags and fusion partners are left off.
UniProt P21554, whole entry: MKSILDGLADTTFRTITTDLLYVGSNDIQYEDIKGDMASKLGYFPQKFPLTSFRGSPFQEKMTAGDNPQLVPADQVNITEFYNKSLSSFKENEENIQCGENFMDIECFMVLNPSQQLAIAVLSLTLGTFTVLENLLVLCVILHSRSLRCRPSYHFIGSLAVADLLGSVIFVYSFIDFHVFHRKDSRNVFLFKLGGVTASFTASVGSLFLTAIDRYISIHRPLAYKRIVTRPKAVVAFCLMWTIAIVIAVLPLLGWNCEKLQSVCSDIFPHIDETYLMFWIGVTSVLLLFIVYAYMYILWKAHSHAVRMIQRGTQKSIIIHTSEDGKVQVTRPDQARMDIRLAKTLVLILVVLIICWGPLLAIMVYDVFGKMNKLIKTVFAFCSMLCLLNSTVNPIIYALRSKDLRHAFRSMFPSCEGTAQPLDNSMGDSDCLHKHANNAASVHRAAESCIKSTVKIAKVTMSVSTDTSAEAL
UniProt P34972, whole entry: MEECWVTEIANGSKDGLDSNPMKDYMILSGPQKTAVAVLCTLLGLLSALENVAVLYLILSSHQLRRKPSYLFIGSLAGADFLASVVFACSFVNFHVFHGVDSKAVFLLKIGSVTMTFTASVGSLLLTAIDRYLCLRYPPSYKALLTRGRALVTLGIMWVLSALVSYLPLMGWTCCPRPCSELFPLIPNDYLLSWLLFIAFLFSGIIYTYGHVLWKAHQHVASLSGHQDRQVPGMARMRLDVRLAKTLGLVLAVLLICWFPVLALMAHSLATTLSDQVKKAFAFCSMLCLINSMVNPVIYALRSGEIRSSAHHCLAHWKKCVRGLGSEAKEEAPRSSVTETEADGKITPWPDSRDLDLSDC

Legend:
[1] = biological target: Cannabinoid receptor 1 (Homo sapiens, UniProt P21554); assay: Inhibition of human CB1 receptor internalization expressed in CHO cells assessed as inhibition of [3H]-Win55212-2 uptake preincubated for 1 hr followed by radioligand addition measured after 1 hr by liquid scintillation counting analysis relative to control; type: cell-based; set-up: concentration or dose not given beside the values; settings: concentration not given here
How it was run: (§1)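 CHO cells stably expressing human CB1 or CB2 grown 24 h at 2.0 × 10^5 cells/mL in DMEM/F12 with 10% FBS. They were preincubated 1 h with serial dilutions (top 5.0 μM for CB1, 10 μM for CB2; DMSO <0.1% final), then given 1 h 10 nM [3H]-Win 55,212-2 (CB1) or 2 nM [3H]-CP 55,940 (CB2). Cells were washed, NaOH-lysed and scintillation-counted. Uptake normalized to no-compound wells; sigmoid fit; mean ± SE, n = 6.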

[2] = biological target: Cannabinoid receptor 2 (Homo sapiens, UniProt P34972); assay: Inhibition of human CB2 receptor internalization expressed in CHO cells assessed as inhibition of [3H]-CP55940 uptake preincubated for 1 hr followed by radioligand addition measured after 1 hr by liquid scintillation counting analysis relative to control; type: cell-based; set-up: concentration or dose not given beside the values; settings: concentration not given here; how it was run: as §1
[3] = organism: Homo sapiens; assay: Selectivity ratio of IC50 for human CB1 receptor to IC50 for human CB2 receptor

| inhibition [1] [%] | inhibition [2] [%] | Ratio IC50 [3] | SMILES |
| --- | --- | --- | --- |
| 29 | 29 | 1250 | C/C=C/C=C/C=C\CC/C=C/C(=O)NCC(C)(C)O |
| 40 | 43 | 0.07 | C/C=C/C=C/C=C/CC/C=C/C(=O)NCC(C)(C)O |
